Results reported in ChEMBL document CHEMBL4024745, “Causes and Significance of Increased Compound Potency in Cellular or Physiological Contexts” (J Med Chem, 2018).

Key:
[1] = target: T1, Diacylglycerol O-acyltransferase 2 (Homo sapiens, UniProt Q96PD7); assay: Inhibition of human DGAT2 using [1-14C]decanoyl-CoA/1,2-didecanoyl-sn-glycerol as substrate preincubated for 120 mins followed by substrate addition measured after 40 mins by liquid scintillation counting method
T1 sequence (Q96PD7 whole entry): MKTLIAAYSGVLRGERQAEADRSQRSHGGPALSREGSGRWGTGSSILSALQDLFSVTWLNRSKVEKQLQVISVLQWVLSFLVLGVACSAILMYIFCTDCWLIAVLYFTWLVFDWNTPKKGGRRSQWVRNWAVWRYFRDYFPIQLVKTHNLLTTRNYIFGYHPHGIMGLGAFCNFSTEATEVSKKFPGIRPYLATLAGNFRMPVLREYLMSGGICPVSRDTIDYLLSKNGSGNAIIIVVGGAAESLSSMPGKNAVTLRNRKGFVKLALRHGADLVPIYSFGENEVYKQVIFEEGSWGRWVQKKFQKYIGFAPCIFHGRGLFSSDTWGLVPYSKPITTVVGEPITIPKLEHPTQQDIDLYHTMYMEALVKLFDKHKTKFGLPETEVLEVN

[2] = target: T1, Diacylglycerol O-acyltransferase 2; assay: Inhibition of human DGAT2 assessed as reduction in synthesis of triglycerol in human hepatocyte using [14C]glycerol as substrate preincubated for 20 mins followed by substrate addition measured after 3.5 hrs by TLC method

For `O=C([C@@H]1CCCN(c2ccc3nc(C4(n5cc(Cl)cn5)CC4)[nH]c3n2)C1)N1CCCC1`, the IC50 [1] was 14 nM and the IC50 [2] was 1.3 nM.
